## Ab-14 heavy chain CDR variants: yeast mating affinities

Reference: Li et al. 2023, doi:10.1038/s41467-023-39022-2. File: FLAb, binding data.

Target peptide (SARS-CoV-2 spike, HR2 region): PDVDLGDISGINAS

Parent scFv Ab-14: VH joined to VL by a (GGGGS)3 linker. Changes lie in the heavy chain CDRs alone.
VH: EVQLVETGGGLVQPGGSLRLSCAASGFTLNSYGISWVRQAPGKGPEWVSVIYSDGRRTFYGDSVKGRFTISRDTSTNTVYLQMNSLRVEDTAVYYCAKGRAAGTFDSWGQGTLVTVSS
VL: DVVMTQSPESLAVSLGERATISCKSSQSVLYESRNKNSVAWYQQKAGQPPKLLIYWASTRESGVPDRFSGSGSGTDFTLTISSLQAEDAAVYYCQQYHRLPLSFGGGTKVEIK

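The starting antibody came from a phage panning campaign against this peptide. These sequences belong to a second round, designed from the earlier measurements on random variants of the parent. Their group label is 14H_En_Gibbs (En: ensemble of fine-tuned language models; Gibbs: Gibbs sampling). In AlphaSeq, yeast of one mating type display the scFv and yeast of the other type display the target. After mating in shaken culture at 30 °C for 16 h, diploids were selected and their barcode pairs sequenced. Each replicate has its own calibration line, from reference interactions of the BCL2 family. The assay was run in six technical replicates.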

Variants are written as CDR1, CDR2 and CDR3 of the heavy chain (limits as in the source). Parent: GFTLNSYGIS, VIYSDGRRTFYGDSVK, GRAAGTFDS. Values are log10 of the apparent Kd in nM; lower means stronger binding. A mean of the replicates is given; it leaves out those without a signal. A pair that was not seen in that replicate is written "ND"; this usually means weak binding, but a binder can also be missed. The authors' rule: three or more of the six replicates give a measured affinity, fewer mean a poor binder. A sequence measured in both rounds can read differently, since the two assays cover different ranges. Empty control strains, which show no peptide, gave a signal in 1% of pairings with all heavy chain designs; the median was 2.08 and 95% of these signals were weaker than 0.84. No background was subtracted. Also given: how often the same scFv was detected with the empty control strains. The parent sequence was in this pool as ten entries: three were never detected, three once, and four in most replicates, with averages from 0.34 to 2.37.

With GMNIDEYGIS, VIYADGLRYHYANSVK, GEMAGTFMV the result was ND, ND, ND, ND, ND, ND (controls 0 of 18).
With GFDLGEYGIS, VIYADGSRSAYATNVK, GGSVYKDDV the result was ND, ND, ND, ND, ND, ND (controls 0 of 18).
With GADINEYGIS, VIYADGRSTYYQNSFK, GHNAGTFNM the result was ND, ND, 2.82, 2.87, ND, ND (mean 2.84; controls 0 of 18).
With GFDLNEYGVS, VIYADGHRTQYSDKVK, GSESASIQN the result was ND, ND, ND, ND, ND, ND (controls 0 of 18).
With GFEVDEYGIS, VIYADGKRSMYANKVK, GHIAGMMGV the result was ND, ND, ND, ND, ND, ND (controls 2 of 18).
With GFGIEEYGIS, VIYADGVRKAYQNSFK, GEVGGTFTN the result was -0.70, -0.98, -0.46, -1.00, -0.88, 0.01 (mean -0.67; controls 0 of 18).
With GFQLNEYGIS, VIYADGLRTGYAQNVK, GYHGFGLNQ the result was ND, ND, ND, ND, ND, ND (controls 1 of 18).
With GFHLDEYGIS, VIYADGKRSAYTNHVK, GELEFGFVI the result was ND, ND, ND, ND, ND, ND (controls 0 of 18).
With GFDIMEYGVS, VIYADGVRTAYSQDVK, GFNLDLYTD the result was ND, ND, ND, ND, ND, ND (controls 0 of 18).
With GFKLDEYGIS, VIYADGSRTEYVQSVK, GDTTVSKFV the result was ND, ND, ND, ND, ND, 1.60 (controls 0 of 18).
With GFDLQDYGIS, VIYADGVRTQYVNNVK, GKWGATILV the result was ND, ND, ND, ND, ND, ND (controls 0 of 18).
With GFDLEDYGIS, VIYADGKRKAYAQKFK, GRIGGTFGD the result was 0.53, -0.02, 0.13, 0.04, 0.62, 0.35 (mean 0.27; controls 0 of 18).
With GFDLREMGIS, VIYADGRRVAYNDKVK, GELTGTFDQ the result was ND, 2.50, ND, ND, ND, 2.15 (mean 2.33; controls 0 of 18).
With GNDLNEYGIS, VIYADGSRTSYIDKVK, GLVGGMLIV the result was ND, ND, ND, ND, ND, ND (controls 1 of 18).
With AFNLEDYGIS, VIYADGVRASYVESVK, GGLAGTFVI the result was ND, ND, ND, ND, ND, ND (controls 0 of 18).
With GFDINEYGIS, VIYADGLRTAYSQQVK, GQDLVDVVD the result was ND, ND, ND, ND, ND, ND (controls 0 of 18).
With GMDLGEYGIS, VIYADGERASYTNNFK, GVSAGTFTV the result was ND, ND, ND, ND, ND, ND (controls 0 of 18).
With GFNLDEYGIS, VIYADGMRTVYADNVK, GQNVGFTVF the result was ND, 2.09, ND, ND, ND, ND (controls 0 of 18).
With GFDLQEYGIS, VIFADGLRSAYSDKVK, GQINGYFSV the result was ND, ND, ND, ND, ND, ND (controls 0 of 18).
With GFDIQEYGIS, VIYADGNRSAYIDNVK, GDTGSSFLE the result was ND, ND, ND, ND, ND, ND (controls 0 of 18).
With GFDLEEYGIS, VIYADGMRTQYINAVK, GIAGDIMDV the result was ND, ND, ND, ND, ND, ND (controls 0 of 18).
With GFVLDEYGIS, VIYADGHRRAYADKVK, GMHMGSFQH the result was ND, 2.90, ND, ND, ND, ND (controls 1 of 18).
With GFELDEMGIS, VIYADGKRAAYSDNVK, GDNRGIFHL the result was ND, 3.06, ND, ND, ND, ND (controls 0 of 18).
With GFNLEEYGIS, VIYADGFRASYQQKVK, GQDGSVMLD the result was ND, ND, ND, ND, ND, ND (controls 0 of 18).
With GFNLEEYGIS, VIYADGSRSSYIEDVK, GHWNADFIV the result was ND, ND, ND, ND, ND, ND (controls 0 of 18).
With GFSLDEYGIS, VIYADGMRQSYCENVK, GEHGCTFGL the result was ND, ND, ND, ND, ND, ND (controls 0 of 18).
With GFDLGEYGIS, VIYADGMRTACKTAVK, GTFSGTLDV the result was ND, ND, ND, ND, ND, ND (controls 0 of 18).
With GFSLENYGIS, VIYADGMRTAYAPSVK, GENDGYDTT the result was ND, ND, 4.68, ND, ND, ND (controls 0 of 18).
With GYDIDEYGIS, VIYADGQRTAYQNNVK, GEQDGIMTY the result was ND, ND, ND, ND, ND, ND (controls 0 of 18).
With GFNLDEQGIS, VIYADGVRCSYAQSVK, GKSSGFIDV the result was ND, ND, ND, ND, ND, 1.83 (controls 0 of 18).
With GFNLDEYGIS, VIYADGIRTVYADQVK, GGLKMHALT the result was ND, ND, ND, ND, ND, ND (controls 0 of 18).
With GFNLDEYGIS, VIYADGRRVAYANAVK, GKNGMFFSF the result was ND, ND, ND, ND, ND, ND (controls 0 of 18).
With GFGMEEYGIS, VIYADGQRNAYADEVK, GENAGTFDI the result was 0.56, 1.12, 0.96, 0.59, 1.44, 1.79 (mean 1.08; controls 0 of 18).
With GFQLDEVGIS, VIYADGARTAYKSKVK, GGNGDSFDI the result was ND, ND, ND, ND, ND, ND (controls 0 of 18).
With GDVLKEYGIS, VIYADGQRTFYVQDVK, GGKAGSFSV the result was ND, ND, ND, ND, ND, 2.38 (controls 0 of 18).
With GFDLGEYGIS, VIYADGSRKAYATNFK, GGSGYKDGV the result was ND, ND, ND, ND, ND, ND (controls 0 of 18).
With GFNLDEYGIS, VIYADGVREAYANKVK, GEQGSFFIT the result was ND, ND, ND, 3.05, ND, ND (controls 0 of 18).
With GQDLNEYGIS, VIYADGRRQMYANPVK, GHQGGIKLT the result was ND, ND, ND, ND, ND, ND (controls 0 of 18).
With GFDIEEYGIS, VIYADGVRAAYADSVK, GENMDIMTD the result was ND, ND, ND, ND, ND, ND (controls 0 of 18).
With GFDVNEYGIS, VIYADGTRTAYANTVK, GKYVGVFVD the result was ND, ND, ND, ND, ND, ND (controls 0 of 18).
With GFDIDEMGIS, VIYADGKRTAYSNQVK, GNIYYDGMS the result was ND, ND, ND, ND, ND, ND (controls 0 of 18).
With GFDLEEYGIS, VIYADGSRTSYQESVK, GLVIGMLDM the result was ND, ND, ND, ND, ND, ND (controls 0 of 18).
With GFGLDEYGIS, VIYADGMRSAYANSVK, GAHAGGIVW the result was ND, ND, ND, ND, ND, ND (controls 0 of 18).
With FFKLEDYGIS, VIYADGKRKAYVDNVK, GEIAGTFDV the result was 0.19, 0.24, -0.61, 0.49, 1.47, -0.33 (mean 0.24; controls 0 of 18).

For reference, 7 entries of the list once more:

| CDR-H1 | CDR-H2 | CDR-H3 | log10 Kd, replicates | mean log10 Kd (nM) | signal with controls |
|---|---|---|---|---|---|
| GQDLNEYGIS | VIYADGRRQMYANPVK | GHQGGIKLT | ND, ND, ND, ND, ND, ND | ND | 0/18 |
| GFNLDEYGIS | VIYADGRRVAYANAVK | GKNGMFFSF | ND, ND, ND, ND, ND, ND | ND | 0/18 |
| GFDIQEYGIS | VIYADGNRSAYIDNVK | GDTGSSFLE | ND, ND, ND, ND, ND, ND | ND | 0/18 |
| GFNLEEYGIS | VIYADGFRASYQQKVK | GQDGSVMLD | ND, ND, ND, ND, ND, ND | ND | 0/18 |
| GADINEYGIS | VIYADGRSTYYQNSFK | GHNAGTFNM | ND, ND, 2.82, 2.87, ND, ND | 2.84 | 0/18 |
| GFNLDEQGIS | VIYADGVRCSYAQSVK | GKSSGFIDV | ND, ND, ND, ND, ND, 1.83 | 1.83 | 0/18 |
| GFNLEEYGIS | VIYADGSRSSYIEDVK | GHWNADFIV | ND, ND, ND, ND, ND, ND | ND | 0/18 |